Earlier results as cited in US7588892B2, “Reagent sets and gene signatures for renal tubule injury” (Entelos, Inc., priority 2004, dated 2009).

Test system: renal tubules
Conditions: rats, daily dose, route and vehicle of Table 2, day 5/7; absence of nephrotoxicity asserted from PDR and published literature; no histological injury on day 5/7; cited from earlier work

SMILES: Cc1cc(=O)n(-c2ccccc2)n1C [ANTIPYRINE]
- Class (nephrotoxic / non-nephrotoxic training label): Non-nephrotoxic
